Changes are numbered by the printed parent chain. Read-outs that look alike come from different tables or passages of the source.
Tests used:
IDH2/WT = target: T1, IDH2/WT (Homo sapiens, UniProt P48735); assay: Diaphorase/resazurin coupled NADPH production enzymatic assay, IDH2/WT; format: biochemical; settings: incubation time 16 h, read-out: IC50 for isocitrate to α-KG
T1 construct: FLAG (C); purchased BPS Bioscience
T1 sequence (P48735 40-452): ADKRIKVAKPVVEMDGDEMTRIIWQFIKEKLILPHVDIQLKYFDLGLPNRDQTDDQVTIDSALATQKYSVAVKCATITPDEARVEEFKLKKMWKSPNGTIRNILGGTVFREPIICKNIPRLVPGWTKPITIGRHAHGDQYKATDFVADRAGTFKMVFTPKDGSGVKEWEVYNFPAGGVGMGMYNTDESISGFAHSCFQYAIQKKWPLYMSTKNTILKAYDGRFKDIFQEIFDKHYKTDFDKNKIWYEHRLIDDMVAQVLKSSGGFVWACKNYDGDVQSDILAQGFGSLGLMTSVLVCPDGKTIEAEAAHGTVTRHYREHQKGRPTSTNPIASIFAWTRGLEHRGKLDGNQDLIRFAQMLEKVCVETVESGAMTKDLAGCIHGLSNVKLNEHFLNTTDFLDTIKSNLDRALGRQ
Description: The compounds were dissolved to a concentration of 20 mM in pure DMSO. Diaphorase/resazurin coupled NADPH deletion or production assays were used to measure the activity of IDH mutants or wild-type IDH (IDH/WT) enzymes. A mixture of IDH2/R140Q enzyme (0.60 μg/mL) and NADPH (30 μM) was prepared in 40 μL assay buffer that consists of 10 mM MgCl2, 150 mM NaCl, 50 mM K2HPO4/KH2PO4 (pH 7.5), 2 mM β-mercapoethanol, 0.05% BSA and 10% glycerol. Afterwards, 20 μL of the gradient concentrations of compound dilution were added to this mixture and incubated at 25 °C for 1 h or 16 h. Then, 20 μL of 4X assay buffer containing 16 mM α-KG was added to initiate the enzymatic reaction, which was allowed to proceed for 1 h at 25 °C. Likewise, the IDH2/WT enzyme (0.12 μg/mL) was mixed with NADP (50 μM) in 40 μL assay buffer, after which compound dilutions were added and incubated as the IDH2/R140Q enzyme assay. Further, 20 μL of 4X assay buffer containing 0.6 mM isocitrate was used for enzymatic reaction. Finally, for both the IDH2/R140Q and IDH2/WT enzymes assays, 40 μL of 3X detection buffer (assay buffer with 45 μg/mL diaphorase and 90 μM resazurin) was added to stop the reaction and incubated for 10 min at room temperature. Then, 40 μL of the resulting mixture was added into a 384-well dark plate in duplicate and the absorbance was measured using Envision (Ex/Em = 544/590 nm).

IDH2/R140Q = target: T2, IDH2/R140Q (Homo sapiens, UniProt P48735, R140Q); assay: Diaphorase/resazurin coupled NADPH depletion enzymatic assay, IDH2/R140Q homodimer; format: biochemical; settings: read-out: IC50 for α-KG reduction
T2 construct: FLAG (C); purchased BPS Bioscience
T2 sequence (P48735 40-452 R140Q): T1 sequence (P48735 40-452) with R101Q

O=C(Nc1cccc(C(F)(F)F)c1)Nc1cc(S(=O)(=O)NC2CC2)ccc1-c1ccsc1 [AGI-6780, reference compound]
IC50 (IDH2/WT): 99.9 nM | IC50 (IDH2/R140Q; incubation time 1 h): 16.4 nM | IC50 (IDH2/R140Q; incubation time 16 h): 12.8 nM
